Results: ChEMBL document CHEMBL2046362, “Synthesis and evaluation of novel potent HCV NS5A inhibitors” (Bioorg Med Chem Lett, 2012)

The chains behind the UniProt entries cited, without tags or fusion partners.
UniProt P05177, whole entry: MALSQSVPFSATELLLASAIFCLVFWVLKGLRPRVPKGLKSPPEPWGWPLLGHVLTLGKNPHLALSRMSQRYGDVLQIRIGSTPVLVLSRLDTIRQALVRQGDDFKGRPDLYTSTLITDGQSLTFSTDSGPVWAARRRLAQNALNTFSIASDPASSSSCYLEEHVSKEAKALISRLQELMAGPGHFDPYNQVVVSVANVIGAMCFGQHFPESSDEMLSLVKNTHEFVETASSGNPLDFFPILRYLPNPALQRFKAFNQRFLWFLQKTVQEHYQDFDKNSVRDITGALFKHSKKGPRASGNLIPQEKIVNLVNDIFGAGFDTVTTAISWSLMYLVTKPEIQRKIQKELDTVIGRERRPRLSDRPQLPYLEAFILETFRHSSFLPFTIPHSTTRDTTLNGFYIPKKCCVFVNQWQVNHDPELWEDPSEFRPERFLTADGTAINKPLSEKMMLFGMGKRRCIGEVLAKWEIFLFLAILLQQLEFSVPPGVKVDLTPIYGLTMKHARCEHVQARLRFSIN

Molecular target: CYP1A2 (Homo sapiens, UniProt P05177)
Experiment: in vitro

O=c1cc(-c2ccccc2)oc2c1ccc1ccccc12 [ALPHA-NAPHTHOFLAVONE]
inhibition at 3 µM: > 93%
